Biological target: COP9-Signalosome (CSN), wild type (human) (UniProt Q13098)
Settings: complex, chains chain;chain;chain;chain, dansyl

Kd: 240 nM
Substance: Cul1^d/Rbx1 assembled with Skp2/Skp1 (from UniProt Q13616 1-776; P62877 1-108; P63208 1-163; Q13309 1-424)

— publication PMC4878873
